Measured values as given in patent publication US20040229872A1, “Substituted cyclohexane-1,4-diamine compounds with anti-diarrhea and peripheral analgesic activity” (Gruenenthal GmbH, priority 2001, published 2004).

Sequences of proteins named here, by UniProt entry; tags and fusion partners are left off.
UniProt P35372, whole entry: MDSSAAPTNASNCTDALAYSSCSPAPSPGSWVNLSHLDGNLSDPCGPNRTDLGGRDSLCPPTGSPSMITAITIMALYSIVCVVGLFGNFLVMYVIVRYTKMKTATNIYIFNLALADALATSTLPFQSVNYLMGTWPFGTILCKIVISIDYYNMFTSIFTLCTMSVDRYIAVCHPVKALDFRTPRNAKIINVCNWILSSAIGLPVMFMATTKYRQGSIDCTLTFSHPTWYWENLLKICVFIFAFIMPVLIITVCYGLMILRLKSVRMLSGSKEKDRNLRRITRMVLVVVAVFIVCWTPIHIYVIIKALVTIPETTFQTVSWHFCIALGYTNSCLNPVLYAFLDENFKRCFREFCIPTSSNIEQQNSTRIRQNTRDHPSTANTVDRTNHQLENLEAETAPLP

Tests used:
[1] = target: μ-opioid receptor (Homo sapiens, UniProt P35372); assay: μ-opioid receptor binding, radioactive displacement assay
[2] = system: mice; assay: analgesia testing in the tail flick test in mice; details: 10.0 mg/kg i.v.

For `CN(C)C1(c2ccccc2)CCC(NC(CCc2ccccc2)C(=O)O)CC1` (racemic), the Ki ([1]; read-out: μ-Opioid Receptor Ki) was 0.8 nM, the Ki ([1]; read-out: μ-Opioid Receptor Ki, hydrochloride) was 140 nM and the “CNS Analgesia (tail flick)” value [2] was 10.0 = ineff.

Read-outs that look alike come from different tables or passages of the source.
